The values that follow come from patent EP4821925A2, “MRGPRX2 ANTAGONIST AND USE THEREOF” (dated 2026).

Amino acid sequences for entries named in this document (tags omitted).
UniProt O95342, whole entry: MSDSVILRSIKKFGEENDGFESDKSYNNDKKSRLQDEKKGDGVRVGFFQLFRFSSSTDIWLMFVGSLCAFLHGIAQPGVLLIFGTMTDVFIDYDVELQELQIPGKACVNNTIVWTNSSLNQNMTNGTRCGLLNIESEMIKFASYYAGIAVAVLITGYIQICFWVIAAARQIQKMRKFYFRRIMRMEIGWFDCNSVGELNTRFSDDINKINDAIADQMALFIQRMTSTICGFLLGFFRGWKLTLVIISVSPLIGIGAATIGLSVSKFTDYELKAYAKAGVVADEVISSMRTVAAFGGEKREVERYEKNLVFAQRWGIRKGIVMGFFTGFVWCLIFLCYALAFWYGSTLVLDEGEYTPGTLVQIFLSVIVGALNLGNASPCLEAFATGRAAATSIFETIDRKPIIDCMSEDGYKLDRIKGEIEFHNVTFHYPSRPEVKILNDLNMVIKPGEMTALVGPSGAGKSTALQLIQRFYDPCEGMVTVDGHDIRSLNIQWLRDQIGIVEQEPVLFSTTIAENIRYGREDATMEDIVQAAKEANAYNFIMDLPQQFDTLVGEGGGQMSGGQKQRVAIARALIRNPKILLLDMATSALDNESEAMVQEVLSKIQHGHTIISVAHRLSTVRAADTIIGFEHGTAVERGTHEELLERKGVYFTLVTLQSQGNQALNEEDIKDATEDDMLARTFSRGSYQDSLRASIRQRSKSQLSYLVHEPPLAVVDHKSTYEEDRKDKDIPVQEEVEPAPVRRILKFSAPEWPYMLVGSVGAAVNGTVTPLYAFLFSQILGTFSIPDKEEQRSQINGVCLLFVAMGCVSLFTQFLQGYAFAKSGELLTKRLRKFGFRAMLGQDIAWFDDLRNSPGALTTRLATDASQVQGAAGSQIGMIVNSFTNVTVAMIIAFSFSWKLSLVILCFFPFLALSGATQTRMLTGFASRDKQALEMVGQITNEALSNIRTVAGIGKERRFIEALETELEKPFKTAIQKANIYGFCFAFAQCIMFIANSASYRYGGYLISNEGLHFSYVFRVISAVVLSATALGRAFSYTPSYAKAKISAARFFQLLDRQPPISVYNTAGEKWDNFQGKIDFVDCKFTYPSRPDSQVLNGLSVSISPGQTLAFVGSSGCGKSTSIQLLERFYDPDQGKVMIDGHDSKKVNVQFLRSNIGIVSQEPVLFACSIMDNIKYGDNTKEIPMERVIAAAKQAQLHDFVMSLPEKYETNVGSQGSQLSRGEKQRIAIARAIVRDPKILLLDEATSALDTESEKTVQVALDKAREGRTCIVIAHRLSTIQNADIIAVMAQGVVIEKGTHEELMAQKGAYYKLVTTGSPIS

Data set [1] can be described thus: Pharmacokinetic assay in mice. The following applies: oral intragastric administration, 10 mg/kg, plasma. As to the method:
Pharmacokinetic assay in mice was performed, and the mice used were male ICR mice weighing 20-25 g and fasted overnight. Three mice were used, and oral intragastric administration was performed at a dose of 10 mg/kg. Blood was collected before administration and at 15 min, 30 min and 1 h, 2 h, 4 h, 8 h, and 24 h after administration. The blood samples were centrifuged at 6800 g at 2-8 °C for 6 min, and plasma was collected and stored at -80 °C. The plasma at each time point was taken, and 3-5 times its amount of an acetonitrile solution containing an internal standard was added for mixing. The mixture was vortexed for 1 min and then centrifuged at 13000 rpm at 4 °C for 10 min. The supernatant was taken, and 3 times its amount of water was added for mixing. An appropriate amount of the resulting mixture was taken for LC-MS/MS analysis. The major pharmacokinetic parameters were analyzed using a non-compartmental model in the WinNonlin 7.0 software. Table 4. Results of pharmacokinetic assay in mice

The test system of data set [2] is HepG2 cells. Description: Hepatotoxicity assay (HepG2 cell viability, CellTiter-Glo). The following applies: inhibition of viability of HepG2 cells, 72 h. The procedure: The hepatotoxicity assay for the compounds was performed using HepG2 (ATCC, HB-8065) cells. Cell viability was determined using a CellTiter-Glo Luminescent Cell Viability Assay kit (Promega, G7573), and the toxicity of the compounds was characterized by the inhibition of viability of HepG2 cells. HepG2 cells in the logarithmic growth phase were collected, the concentration of the cell suspension was adjusted, and then the cells were plated on a 96-well cell culture plate at 5000 cells/well. The cells were incubated in a cell incubator with 5% CO2 at 37 °C overnight, and the next day, medium change was performed, and compound solutions at different concentrations were added. Meanwhile, a negative control group (cells + DMSO) and a blank control group (medium + DMSO) were set, and the cells were incubated in the cell incubator with 5% CO2 at 37 °C for 72 h. After the treatment was completed, procedures were performed according to the instructions of the kit, and luminescence signal values in different wells were measured using an EnVision plate reader (2104). The inhibition of the viability of HepG2 cells by the compounds at different concentrations was calculated according to the following formula. The concentration of the compound was plotted on the X-axis, and the inhibition rate was plotted on the Y-axis. The toxic effect (IC50 value) of the compound on HepG2 was calculated using GraphPad Prism 8.0 software. Inhibition rate (%) = (1−(signal value of each compound group−signal value of blank control group)/(signal value of negative control group−signal value of blank control group)) × 100% [formula] Table 3: Assay results of toxicity on HepG2
Background: In ATP-based viability assays light output follows the ATP content of the culture.

Data set [3] addresses human BSEP (Homo sapiens, UniProt O95342). Kind of data set: Assay for inhibitory effect on BSEP (vesicle transport). The following applies: vesicle expressing human BSEP, probe substrate transport, 37 °C. The procedure:
The assay for the inhibitory effect on bile salt export pump (BSEP) by the compounds was performed using a vesicle expressing human BSEP (GenoMembrane). The compounds at different concentrations were pre-incubated with the vesicle for 5 min, with a negative control (NC) group and a positive control (PC) group set up. The NC group involved pre-incubation of the vesicle with blank buffer at 37 °C for 5 min, and the PC group involved pre-incubation of the vesicle with a positive inhibitor at 37 °C for 5 min. Subsequently, with the addition ofATP or AMP separately, the mixture was incubated with the probe substrate at 37 °C for 5 min. The assay was terminated using pre-cooled Buffer B1 (10 × Buffer B1 (Stopping and Washing Buffer): 100 mM Hepes-Tris, 1000 mM KNO3, 500 mM Sucrose). The test samples were transferred to a 96-well filter plate, subjected to suction filtration by a vacuum pump, and then washed 5 times with 0.2 mL of pre-cooled Buffer B1. 50 µL of 80% methanol was used to dissolve the vesicles on the filter plate. After collection, the mixture was centrifuged at 2000 rpm for 2 min to collect the filtrate, and the process was repeated once. The two filtrates were combined and mixed well to obtain approximately 100 µL of filtrate. Pre-cooled methanol containing an internal standard was added, and the mixture was centrifuged at 12,000 rpm for 5 min. The supernatant was collected for LC-MS/MS quantification analysis to detect the amount of substrate transported. The concentration of the compound was plotted on the X axis, and the relative activity (% of NC) was plotted on the Y axis. The IC50 value and the inhibition rate of the compound on inhibiting bile salt export pump activity were calculated using Prism software.
The transport rate (activity) and relative activity under different conditions were calculated according to the following formulas: Substrate active transport rate (pmol/min/mg) =; (transport amount of substrate driven by ATP−average transport amount of substrate driven by AMP (pmol))/(incubation time (min) × vesicle protein amount (mg)) [formula] Relative activity (%ofNC) = (transport activity of PC sample or test sample)/(transport activity of NC sample)% [formula] Table 6. Inhibitory effect of test compounds on BSEP

As usually defined, the Cmax is the peak of the concentration-time curve. As a reminder, the IC50 is the concentration that gives 50% inhibition. Lower therefore signals inhibition by little substance. Regarding `COc1ccc(C(=O)NC2CCC(Nc3cc(C(F)(F)F)c(=O)n(C)n3)CC2)cc1` (centres unmarked), in data set [1], the “AUC0-t” value is 21770 ng·h/mL and the “Cmax” value was found to be 2642 ng/mL. The half-maximal inhibitory concentration (IC50) in data set [2] is over 100 µM. Besides, the IC50 in data set [3] worked out at 95 µM.
As for `Cn1nc(N[C@H]2CC[C@@H](NC(=O)c3cn(CC(F)(F)F)nc3Cl)CC2)cc(C(F)(F)F)c1=O`, in data set [1], the “AUC0-t” value worked out at 31492 ng·h/mL and the “Cmax” value came to 4140 ng/mL. In data set [2], the IC50 was over 100 µM. This compound also had an IC50 in data set [3] of 79 µM.
